# Measurements taken from BindingDB's records for 22227210 (Slovak Academy of Sciences, 2012).
# Amino acid sequences for entries named in this document (tags omitted). Residues count along the entry.
# UniProt A6YCJ1, 23-292 limits assumed: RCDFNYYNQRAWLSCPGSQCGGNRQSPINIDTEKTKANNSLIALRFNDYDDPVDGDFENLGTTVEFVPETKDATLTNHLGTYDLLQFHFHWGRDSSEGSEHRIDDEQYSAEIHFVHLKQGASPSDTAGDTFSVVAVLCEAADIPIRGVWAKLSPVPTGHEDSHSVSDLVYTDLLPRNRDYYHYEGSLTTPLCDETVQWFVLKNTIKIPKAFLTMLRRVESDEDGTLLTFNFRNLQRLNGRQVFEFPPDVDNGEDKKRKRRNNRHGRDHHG
# pKi: −log10 of the molar value.
# Molecular target: Carbonic anhydrase (Astrosclera willeyana, UniProt A6YCJ1)
# Assay: Inhibition of Astrosclera willeyana recombinant GST-tagged astrosclerin 3 expressed in Escherichia coli BL21-DE3-RIPL cells preincubated for 15 mins measured for 10 to 100 secs by stopped flow CO2 hydration assay
smiles,measurement,value
[O]=[V]([OH])([OH])[O][V](=[O])([OH])[OH],pKi,3.19
